p53 reactivation: re-activators of mutant p53. Potency, µM (titrated, usually from 92.2 µM), inactives show at the highest dose activity change, positive = activation, hits mostly activators. 0.063% of 320,000 active. H1299 p53-A138V BP100-luciferase reporter, luminescence, 24 h; also: potency is read from the fitted curve at half-maximal effect; % of control where 0% means no effect; nearly all actives have a fitted effect of over 45% in size
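H1299 (p53-null), stable ts p53-A138V + BP100-Luc; 1000 cells/well, Opti-MEM/10% FBS; cpd 4 pt, 1:5; 24 h, 37 deg C, 5% CO2; detection reagent 10 min RT; luminescence.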
miR-21 reporter: miR-21 reporter, rising signal | HeLa miR-21 FLuc reporter, luciferase, 48 h | Potency, µM (top dose mostly 38.3 µM), inactives show at the highest dose reporter change, positive = more light | 340,000 tested, under 10 active | AID 2288; active = well fitted rising curve with a large enough effect; inconclusive = small, poorly fitted or top-dose-only effect; inactive = no such curve, though single readings can be large or run the other way;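 note: % of control where 0% means no effect; miR-21 action dims this reporter so a rising signal means less miR-21 action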
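HeLa cells endogenously expressing miR-21, stably carrying CMV-driven firefly luciferase with a downstream miR-21 binding site, 2000 cells/well. Titrations up to approximately 40 uM, 48 hours; luciferase luminescence read.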
BRCA1 expr up: activators of BRCA1 expression; 1.1% of 380,000 active; MCF7-BRCA1-FFLuc reporter, luminescence, 48 h; response scale: scaled: vehicle 0%, 10 µM genistein 100%; Potency, µM (doses to about 46.1 µM), for the others: at the top dose activation, hits mostly activators; also: potency is read from the fitted curve at half-maximal effect; nearly all actives have a fitted effect of over 80% in size
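Using MCF7 cells harboring a BRCA1 firefly luciferase reporter, plated 2 h before compound pinning, the screen measured luminescence after 48 h incubation. Responses were normalized to DMSO and 10 microM genistein, then fitted for concentration-effect.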
Anesthetic bind: candidate novel general anesthetic via apoferritin binding; P02791; apoferritin/1-aminoanthracene competitive binding, fluorescence; Potency, µM (top dose mostly 77.5 µM), for the others: top-dose activity change, negative = displacement, actives largely listed as inhibitors; 0.074% of 350,000 active; AID 485281; also: potency is read from the fitted curve at half-maximal effect; % is scaled to controls: 0 for no effect and ±100 for the full control effect; nearly all actives have a fitted effect of over 20% in size
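In PBS, apoferritin at 10 uM is loaded with 1-AMA from a 50% saturated solution. After 10 min of compound exposure at ambient temperature, reduced 535 nm fluorescence indicates probe displacement.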
* marks the source's active call; other numbers are inactive results; u = inconclusive; x = no result given. Compounds with a hit are over-represented: about 1.1% of the library has one in this group of screens. Unless noted, calls follow the shape of the dose curve; as a rule, active = well fitted curve in the direction sought with a large enough effect; inconclusive = small, poorly fitted or top-dose-only effect, or another doubt; inactive = no such curve, though single readings can be large; an effect the other way counts as inactive or inconclusive.

SMILES | p53 reactivation | miR-21 reporter | BRCA1 expr up | Anesthetic bind
O/N=C(/C[n+]1cccc(Br)c1)c1ccc2ccccc2c1 | x | x | -4.2% | x
CC1=C(C(=O)N2CCCCCC2)CC(CC(=O)NCCCCc2ccccc2)C(=O)N1CCC1=CCCCC1 (stereo unspecified) | x | x | -18.2% | x
O=C(Nc1nnc([C@H]2C[C@H](O)[C@@H](CO)O2)s1)Nc1ccccc1C(F)(F)F | x | x | 24.4% | x
O=C(CSc1nnc(-c2cccc(Br)c2)o1)N1CCNC1=O | 22.3% | x | 10µM* | x
O=C(CSc1nnc(-c2ccccc2Cl)o1)N1CCCC1 | u | -31.2% | 7.08µM* | -8.0%
Cc1cccc(-c2nnc(SCC(=O)N3CCCC3)o2)c1 | 21.7% | -58.7% | 7.08µM* | -12.7%
CC(C)NC1(C(N)=O)CCNCC1 | x | x | -3.0% | x
Cc1onc(-c2c(Cl)cccc2Cl)c1C(=O)N=S(C)(=O)c1ccccc1 (stereo unspecified) | -6.2% | -0.9% | -6.5% | -2.5%
O=C(NCC(c1ccc2c(c1)OCO2)N1CCN(c2ccccc2)CC1)c1ccccc1F (stereo unspecified) | x | -1.1% | x | 1.1%
O=C(O)c1cc(S(=O)(=O)N2CCCCC2)ccc1N1CCOCC1 | 3.8% | x | -2.3% | x
Cc1ccccc1OCC(=O)Nc1ccccc1C(=O)OCc1cc(=O)n2c(C)csc2n1 | x | -6.9% | x | -11.4%
Fc1cccc(Cn2ccc(-c3ccc4c(c3)OCO4)n2)c1 | u | -53.4% | 10µM* | -11.9%
CSCCC(=O)Nc1ccc(C(C)=O)cc1 | u | -36.8% | 12.6µM* | -12.1%
Cc1ccc(NC(=O)CSc2nccn2Cc2ccccc2)cc1C | u | -38.1% | 8.91µM* | u
Cc1ccc(NC(=O)CSc2nccn2Cc2ccco2)cc1 | 4.3% | -39.2% | 10µM* | -9.3%
CC(=O)c1ccc(NC(=O)CSc2nccn2CCc2ccccc2)cc1 | u | -32.9% | 12.6µM* | u
CCCCN(C(=O)C1CCCO1)c1c(N)n(CCC)c(=O)[nH]c1=O (stereo unspecified) | -4.5% | x | -6.3% | x
CCOc1ccc(CNCc2c(C(=O)O)n(Cc3ccccc3C)c3cc(OC)ccc23)cc1OC | x | 0.4% | -31.0% | 55.7%
Cc1cc(C)cc(OCC(=O)OCC(=O)NC2CCCCCC2)c1 | 11.0% | x | -5.0% | x
N#Cc1ccccc1NC(=O)CSc1nnc(-c2ccccc2)n1-c1ccccc1 | -2.7% | 0.7% | -89.7% | -9.4%
Cn1ccnc1SCC(=O)Nc1ccc2nc(SCC(=O)NC3CC3)sc2c1 | u | -29.5% | 3.55µM* | -10.6%
COc1ccc(Cn2ccnc2SCC(=O)NC2CCCC2)cc1 | -6.8% | 1.2% | -13.3% | 35.5µM*
CCOC(=O)c1ccc(NC(=O)CSc2nccn2C)cc1 | 29.5% | -39.7% | 83.1% | -14.9%
N#Cc1ccccc1NC(=O)CSc1nccn1CCc1ccccc1 | u | -45.5% | 11.2µM* | -12.5%
CCCNC(=O)CSc1nccn1Cc1ccc(OC)cc1 | -3.3% | -3.4% | -15.5% | -13.8%
CC(=O)c1ccc(NC(=O)CSc2nccn2C)cc1 | 5.1% | -35.6% | 11.2µM* | -6.2%
CCNC(=O)NC(=O)CSc1ccc(S(=O)(=O)N(C)C2CCCCC2)cn1 | -8.8% | x | 3.3% | x
CCc1ccc(C(=O)CSc2nc(-c3ccccc3)nc3c2CCCC3)cc1 | x | 1.0% | 4.8% | -14.0%
COc1ccc(C)cc1NC(=O)Cn1c(=O)ccc2cc(S(=O)(=O)N3CCCC3)ccc21 | x | 4.8% | -8.4% | 0.1%
COc1ccc2[nH]c(=O)c(C(=O)O)cc2c1 | -2.5% | 3.6% | -11.8% | 52.1%

Given as labelled records: entries from further up
> Cc1ccc(NC(=O)CSc2nccn2Cc2ccccc2)cc1C
  p53 reactivation = u	miR-21 reporter = -38.1%	BRCA1 expr up = 8.91µM*	Anesthetic bind = u

> Cc1ccc(NC(=O)CSc2nccn2Cc2ccco2)cc1
  p53 reactivation = 4.3%	miR-21 reporter = -39.2%	BRCA1 expr up = 10µM*	Anesthetic bind = -9.3%

> CC(=O)c1ccc(NC(=O)CSc2nccn2CCc2ccccc2)cc1
  p53 reactivation = u	miR-21 reporter = -32.9%	BRCA1 expr up = 12.6µM*	Anesthetic bind = u

> CCCCN(C(=O)C1CCCO1)c1c(N)n(CCC)c(=O)[nH]c1=O (stereo unspecified)
  p53 reactivation = -4.5%	miR-21 reporter = x	BRCA1 expr up = -6.3%	Anesthetic bind = x

Carrying on.
SMILES | p53 reactivation | miR-21 reporter | BRCA1 expr up | Anesthetic bind
CC(C)C1Cc2[nH]c(=O)c(C(=O)O)cc2CO1 (stereo unspecified) | u | 0.4% | 8.91µM* | 8.0%
Cc1cc(-c2ccco2)n(-c2ccccc2)n1 | 1.1% | -0.7% | -4.2% | -11.8%
Cc1cc(-c2ccccc2)n(-c2ccccc2)n1 | u | -56.5% | 8.91µM* | -18.7%
Cc1cn([C@H]2C[C@H](O)[C@@H](CNCc3cnc(N4CCOCC4)nc3)O2)c(=O)[nH]c1=O | x | x | 3.6% | x
CN(C)c1cccc(C(=O)N/N=C/c2ccoc2)c1 | x | x | 73.3% | x
CN(C)c1cccc(C(=O)N/N=C/c2ccsc2)c1 | u | -51.9% | 10µM* | -15.0%
COCCn1c(C)cc(O)c(C(c2cccc(F)c2)N2CCN(c3ccccc3)CC2)c1=O (stereo unspecified) | x | -0.8% | x | 1.1%
CCOC(=O)C1CCN(Cc2cccc(OCc3ccccc3)c2)CC1 | x | 3.9% | -16.2% | -12.3%
Cc1cccc(-c2cc3nc(C)cc(C)n3n2)c1 | 14.0% | -63.0% | 1.58µM* | -13.4%
Nc1c(C(=O)Nc2ccccc2)sc2nc(N3CCOCC3)c3c(c12)CCCC3 | x | x | 12.6µM* | x
Nc1c(C(=O)Nc2ccc(Cl)cc2)sc2nc(N3CCOCC3)c3c(c12)CCCC3 | 2.6% | -6.5% | 19.8% | 0.1%
CCN(CC)c1ccc(/C=C(\C#N)c2ccccn2)cc1 | x | 17.7% | u | -20.2%
CCN(Cc1ccccc1)c1ccc(/C=C(\C#N)c2ccccn2)cc1 | u | -58.8% | 5.01µM* | -9.9%
CCOc1ccc2nc(N3CCCC(C(=O)NCc4ccccc4OC)C3)sc2c1 (stereo unspecified) | x | -15.5% | x | 1.8%
COc1nc(NC23CC4CC(CC(C4)C2)C3)nc(OC)n1 | -4.3% | -33.7% | 8.1% | 7.08µM*
CC1CCc2c(sc(NC(=O)COC(=O)C3CCCO3)c2C#N)C1 (stereo unspecified) | 15.5% | -31.3% | 19.4% | -14.7%
CC1CCc2c(sc(NC(=O)C3CCCO3)c2C#N)C1 (stereo unspecified) | 8.4% | -58.5% | 10µM* | -8.5%
Clc1ccc(-n2nnc(-c3cccnc3Cl)n2)cc1Cl | 20.4% | -51.9% | 3.98µM* | -11.2%
CC(C)(C)c1ccc(OCCn2c(CCNC(=O)C3CCCCC3)nc3ccccc32)cc1 | x | x | -50.2% | x
COc1cc2c(cc1N)-c1ccc(N)cc1C2 | x | x | 7.94µM* | x

In another format: results already given.
molecule	p53 reactivation	miR-21 reporter	BRCA1 expr up	Anesthetic bind
CCCNC(=O)CSc1nccn1Cc1ccc(OC)cc1	-3.3%	-3.4%	-15.5%	-13.8%
CC(=O)c1ccc(NC(=O)CSc2nccn2C)cc1	5.1%	-35.6%	11.2µM*	-6.2%

(more compounds)
SMILES | p53 reactivation | miR-21 reporter | BRCA1 expr up | Anesthetic bind
C/C(=N/NC(=O)c1ccccn1)c1ccc(O)cc1 | 11.1% | -50.0% | u | -8.3%
C/C(=N/NC(=O)c1ccccn1)c1c[nH]c2ccccc12 | 8.7% | -49.4% | 7.08µM* | -3.3%
CCOc1cccc(-c2cnc3cccnn23)c1 | x | x | 8.91µM* | x
CCOc1ccc(-c2cnc3cccnn23)cc1 | x | x | 7.08µM* | x
CSc1ccccc1-c1cnc2cccnn12 | x | x | 13.0% | x
O=C(NC1CC1)c1ccc(-c2cnc3cccnn23)cc1 | x | x | 7.94µM* | x
c1cc(-c2cnc3cccnn23)c2cccnc2c1 | x | x | -8.9% | x
COC(=O)C=C1CCC2C3CC(F)C4(O)CC(=O)CCC4(C)C3C(=O)CC12C (stereo unspecified) | x | x | -18.3% | x
O=C(Cc1ccc(NC(=O)C2CCN(C(=O)C3CCCCC3)CC2)cc1)Nc1ccc(C(=O)N2CCOCC2)cc1 | x | x | -1.3% | x
Cc1ccccc1NC(=O)Cn1c(=O)n(CCC(=O)N2CCc3ccccc3C2)c(=O)c2ccccc21 | x | -5.1% | 7.7% | -8.9%
CN(CC(=O)O/N=C(\N)c1cccc([N+](=O)[O-])c1)S(=O)(=O)c1ccccc1 | 15.9% | -9.8% | 0.7% | 28.2µM*

Bioassay records (PubChem)
